# Assay results: PubChem BioAssay AID602244 (Sanford-Burnham Center for Chemical Genomics, 2012)
# Protein sequences, listed by entry. Tags and fused reporters are not part of them.
# UniProt O00574, whole entry: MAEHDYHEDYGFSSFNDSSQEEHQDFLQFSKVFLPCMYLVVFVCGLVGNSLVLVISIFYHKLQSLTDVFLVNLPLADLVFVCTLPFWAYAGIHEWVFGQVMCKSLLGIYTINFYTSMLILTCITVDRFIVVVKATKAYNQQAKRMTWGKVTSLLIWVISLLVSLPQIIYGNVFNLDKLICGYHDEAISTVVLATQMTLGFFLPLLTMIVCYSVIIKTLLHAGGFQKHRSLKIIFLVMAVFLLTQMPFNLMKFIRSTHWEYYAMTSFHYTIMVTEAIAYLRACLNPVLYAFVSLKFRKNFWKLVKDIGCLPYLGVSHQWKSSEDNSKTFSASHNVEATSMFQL
# The list shows a part of the results, in another mix than the full data. Some tests of the compounds listed are not included; inactive here does not mean inactive elsewhere. Activity calls are given as the source filed them. No stated cut-off is given here; in the data, active means inhibition above about 34% (passing the limit was not always enough); inactive means the rest.
# Target: C-X-C chemokine receptor type 6 (Homo sapiens) (UniProt O00574)
# Test: blockade of CXCL16-induced CXCR6 beta-arrestin recruitment – cell-based, luminescence, CHO-K1 PathHunter, 1536-well, primary screen (AID 602244);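 further: antagonist mode with CXCL16 agonist at 10 nM final; 0% = 10 nM CXCL16 with DMSO and 100% = unstimulated wells without agonist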
# Settings: at 20 µM, active compounds read high
row,SMILES,inhibition
1,Cc1ccc(C(=O)NCC2(N3CCCCC3)CCCCC2)cc1,inactive: 13.1%
2,CCN(CC)CC(C)C(C)OC(=O)C(O)(c1ccccc1)c1ccccc1 (stereo unspecified),inactive: 11.5%
3,COc1cc(SC)ccc1C(=O)NCC1(N(C)C)CCCCC1,inactive: 1.4%
4,CC(C)N1C(=O)CC2(CCN(CCOC(=O)C(O)(c3ccccc3)c3ccccc3)CC2)C1=O,inactive: -3.8%
5,CN1[C@@H]2CC[C@H]1CC(OC(=O)C(O)(c1ccccc1)c1ccccc1)C2 (stereo partly specified),inactive: 5.1%
6,O=C(NCC1(N2CCCCC2)CCCCC1)c1cc([N+](=O)[O-])ccc1Cl,inactive: 3.5%
7,COc1ccc(C(=O)NCC2(N(C)C)CCCCC2)cc1,inactive: 3.8%
8,CCN1CCCC(OC(=O)C2(O)c3ccccc3C=Cc3ccccc32)C1 (stereo unspecified),inactive: -3%
9,Cc1cc(C(=O)NCC2(N3CCCCC3)CCCCC2)ccc1[N+](=O)[O-],inactive: 2.3%
10,O=C(NCC1(N2CCCCC2)CCCCC1)c1cccc(Br)c1,inactive: -0.8%
11,C=CCN1CCN(CCOC(=O)C(O)(c2ccccc2)c2ccccc2)CC1,inactive: -2.3%
12,O=C(NCC1(N2CCCCC2)CCCCC1)c1cc(F)c(F)cc1Cl,inactive: -3%
13,Cc1ccccc1C(=O)NCC1(N2CCCCC2)CCCCC1,inactive: -1.2%
14,CN(C)c1ccc(C(=O)NCC2(N(C)C)CCCCC2)cc1,inactive: -3.3%
15,CN(C)C1CCCC1OC(=O)C(O)(c1ccccc1)c1ccccc1 (stereo unspecified),inactive: 3.9%
16,O=C(NCC1(N2CCCCC2)CCCCC1)c1cccc(Cl)c1,inactive: 5.3%
17,COc1cccc(C(=O)NCC2(N3CCCCC3)CCCCC2)c1,inactive: -2.9%
18,COc1ccc(Cl)cc1C(=O)NCC1(N(C)C)CCCCC1,inactive: -1.5%
19,COc1cc(C(=O)NCC2(N(C)C)CCCCC2)c([N+](=O)[O-])cc1OC,inactive: -10.2%
20,CN(C)C1(CNC(=O)c2ccc(Br)cc2)CCCCC1,inactive: 6.7%
21,CC(C)Oc1ccc(C(=O)NCC2(N(C)C)CCCCC2)cc1,inactive: -0.6%
22,O=C(OCCN1CCCC1)C(O)(c1ccccc1)c1ccccc1,inactive: 0.5%
23,CN(C)c1cccc(C(=O)NCC2(N(C)C)CCCCC2)c1,inactive: -0.7%
24,C=C(C)C#CC(O)(C(=O)OC1CCN(C)CC1)c1ccccc1 (stereo unspecified),inactive: 0.6%
25,COc1ccc(Br)c(C(=O)NCC2(N3CCCCC3)CCCCC2)c1,inactive: 15.1%
26,O=C(OC1CN2CCC1CC2)C(CO)(c1ccccc1)c1ccccc1 (stereo unspecified),inactive: 4.5%
